Measurements: PubChem BioAssay AID743255 (National Center for Advancing Translational Sciences (NCATS), 2014)
Only a part is listed here, and it is no random draw. Results filed as inconclusive are left out. The source made the active and inactive calls. Calls follow the shape of the dose curve; as a rule, active = well fitted inhibition curve with a large enough effect; inconclusive = small, poorly fitted or top-dose-only effect; inactive = no such curve, though single readings can be large or run the other way.

Protein sequences, listed by entry. Tags and fused reporters are not part of them. Lines headed by an entry give the natural chain unless they say otherwise; changes in a name come on top.
UniProt O94782: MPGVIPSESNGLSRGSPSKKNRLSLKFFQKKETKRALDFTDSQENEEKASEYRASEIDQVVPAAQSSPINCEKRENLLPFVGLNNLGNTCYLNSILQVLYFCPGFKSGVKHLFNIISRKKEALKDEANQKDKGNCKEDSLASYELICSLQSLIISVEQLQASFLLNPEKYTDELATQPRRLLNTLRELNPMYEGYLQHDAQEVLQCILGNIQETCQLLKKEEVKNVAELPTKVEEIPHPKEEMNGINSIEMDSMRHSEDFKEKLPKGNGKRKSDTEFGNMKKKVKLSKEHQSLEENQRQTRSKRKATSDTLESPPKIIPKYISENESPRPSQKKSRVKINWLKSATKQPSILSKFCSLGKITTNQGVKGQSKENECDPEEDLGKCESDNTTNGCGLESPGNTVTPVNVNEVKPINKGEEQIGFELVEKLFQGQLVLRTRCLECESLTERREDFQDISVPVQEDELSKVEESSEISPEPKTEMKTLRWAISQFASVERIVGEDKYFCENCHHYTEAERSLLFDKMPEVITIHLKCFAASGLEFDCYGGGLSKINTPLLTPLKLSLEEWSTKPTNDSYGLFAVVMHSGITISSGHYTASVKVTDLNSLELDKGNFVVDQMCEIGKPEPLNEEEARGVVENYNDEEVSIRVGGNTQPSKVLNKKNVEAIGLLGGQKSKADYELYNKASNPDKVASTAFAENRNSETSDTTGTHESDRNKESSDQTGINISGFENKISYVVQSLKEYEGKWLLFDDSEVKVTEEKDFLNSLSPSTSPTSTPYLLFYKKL

molecular target: Ubiquitin carboxyl-terminal hydrolase 1 (Homo sapiens) (UniProt O94782); experiment: Inhibitors of USP1/UAF1: Primary Screen; conditions: recombinant USP1/UAF1, Ub-Rhodamine cleavage fluorescence; at 57.1 µM (top of the series); also: nearly all actives have a fitted effect of over 60% in size
Excerpt: Deubiquitinating enzymes (DUBs) are a class of enzymes that can cleave isopeptide bond formed between the C-terminal carboxylate of ubiquitin and a lysine side-chain amino group on the target protein. Among them, ubiquitin specific proteases (USPs) constitute the largest DUB family. Human USPs are emerging as promising targets for pharmacological intervention because of their connection to a number of human diseases, including prostate, colon and breast cancer (1, 2), pediatric acute lymphoblastic leukemia (3), and familial cylindromatosis (4). The advantage of inhibiting USPs lies in the potential specificity of therapeutic intervention that can lead to better efficacy and reduce nonspecific side effects. In a collaboration between the University of Delaware and the NIH Chemical Genomics Center, a high-throughput screen assay was developed to screen for USP1/UAF1 inhibitors. This miniaturized assay has a fluorescent read-out and is used to screen the NIH Molecular Libraries Small Molecule Repository (MLSMR) in order to identify a small molecule that inhibits USP1. NIH Chemical Genomics Center [NCGC] NIH Molecular Libraries Probe Centers Network [MLPCN] MLPCN Grant: DA030552 Assay Submitter (PI): Zhihao Zhuang, University of Delaware 1. Priolo, C., et al. (2006) The isopeptidase USP2a protects human prostate cancer from apoptosis. Cancer Res 66, 8625-8632 2. Popov, N., et al. (2007) The ubiquitin-specific protease USP28 is required for MYC stability. Nat Cell Biol 9, 765-774 3. De Pitta, C., et al. (2005) A leukemia-enriched cDNA microarray platform identifies new transcripts with relevance to the biology of pediatric acute lymphoblastic leukemia. Haematologica 90, 890-898 4. Kovalenko, A., et al. (2003) The tumour suppressor CYLD negatively regulates NF-kappaB signalling by deubiquitination. Nature 424, 801-805
3 microliters of reagents (buffer in columns 3 and 4 as negative control and 1nM USP1/UAF1 complex in columns 1, 2, and 5-48) are dispensed into Greiner black solid bottom 1536-well assay plates. Compounds are then transferred via Kalypsys pin tool equipped with 1536-pin array (10nl slotted pins, V&P Scientific, San Diego, CA). Following an incubation step of 15 min at room temperature, 1ul of Ub-Rho substrate (150nM final concentration) is added to initiate the reaction. The plates are immediately centrifuged at 1000 rpm for 15 seconds, and subsequently transferred to a ViewLux high-throughput CCD imager (PerkinElmer) wherein kinetic measurements of fluorescence are acquired using 480 nm excitation/540 nm emission filter set (6 reads every 60 seconds, see Table 1). All reagents are diluted in an assay buffer consisting of 50mM HEPES (pH 7.8), 0.5mM EDTA, 0.1 mg/ml BSA, 1mM TCEP, and 0.01% Tween-20.
% is scaled to controls: 0 for no effect and ±100 for the full control effect.

**Q.** For `CCC(C)N(CC(C)C)C(=S)SC(NC(C)=O)C(Cl)(Cl)Cl` (stereo unspecified), which activity change, negative = inhibition is on record?
**A.** inactive: -23.1%

**Q.** How did the activity change, negative = inhibition turn out when `O=C(Nc1ccncc1[N+](=O)[O-])c1ccc([N+](=O)[O-])cc1[N+](=O)[O-]` was run?
**A.** inactive: -10.7%

**Q.** With `O=C(COc1ccccc1)OC1CN2CCC1CC2` (stereo unspecified) as the compound, how does the activity change, negative = inhibition read?
**A.** inactive: -16%

**Q.** With `O=C(O)C(=O)c1ccc(N(CCCl)CCCl)cc1` as the compound, how does the activity change, negative = inhibition read?
**A.** inactive: -16.1%

**Q.** `CCOC(=O)Nc1cccc([As](=O)(O)O)c1` was tested. Which activity change, negative = inhibition did it give?
**A.** inactive: -7.5%

**Q.** With `O=[N+]([O-])c1ccc(Nc2ccc(Oc3ccc([N+](=O)[O-])cc3[N+](=O)[O-])cc2)c([N+](=O)[O-])c1` as the compound, how does the activity change, negative = inhibition read?
**A.** inactive: -22.2%

**Q.** `Cc1cc(SC(NC=O)C(Cl)(Cl)Cl)ncn1` (stereo unspecified) was tested. Which activity change, negative = inhibition did it give?
**A.** inactive: -4.7%

**Q.** For `O=P(Nc1ccccn1)(c1cccc2ccccc12)c1cccc2ccccc12`, which activity change, negative = inhibition is on record?
**A.** inactive: -29.8%

**Q.** For `CC1CCNP(=O)(N(CCCl)CCCl)O1` (stereo unspecified), which activity change, negative = inhibition is on record?
**A.** inactive: -10%

**Q.** How did the activity change, negative = inhibition turn out when `O=C(O)C(O)c1ccc(N(CCCl)CCCl)cc1` (stereo unspecified) was run?
**A.** inactive: -15.8%

**Q.** With `CCOC(=O)Nc1ccc([As](=O)(O)O)c(O)c1` as the compound, how does the activity change, negative = inhibition read?
**A.** inactive: -14.1%

**Q.** `Cc1cc(SC(NC(=O)c2ccccc2)C(Cl)(Cl)Cl)nc(C(C)C)n1` (stereo unspecified) was tested. Which activity change, negative = inhibition did it give?
**A.** inactive: -3.91%

**Q.** For `CCCCOc1ccc(C(=O)NCC2(N3CCCCC3)CCCCC2)cc1OC`, which activity change, negative = inhibition is on record?
**A.** inactive: -10.6%

**Q.** With `COP(=O)(OC)N1CC1c1ccccc1` (stereo unspecified) as the compound, how does the activity change, negative = inhibition read?
**A.** inactive: -17.2%

**Q.** Which activity change, negative = inhibition does the source give for `COC(=O)C1(C)COP(=O)(N2CCCCCC2)OC1` (stereo unspecified) here?
**A.** inactive: -8.94%

**Q.** `CC(C)c1ccc(OP(=O)(Nc2ccccn2)Oc2ccccc2F)cc1` (stereo unspecified) was tested. Which activity change, negative = inhibition did it give?
**A.** inactive: -15.5%

**Q.** With `ClCCSc1nnc(-c2cccnc2)o1` as the compound, how does the activity change, negative = inhibition read?
**A.** inactive: -17.3%

**Q.** Which activity change, negative = inhibition does the source give for `O=[N+]([O-])c1cc([N+](=O)[O-])c(-c2ccn[nH]2)s1` here?
**A.** inactive: -11%

**Q.** With `CC(C)NC(=O)NP(=O)(Oc1ccccc1)Oc1ccccc1` as the compound, how does the activity change, negative = inhibition read?
**A.** inactive: -2.97%

**Q.** `CCN(CC)C(=S)SC(NC=O)C(Cl)(Cl)Cl` (stereo unspecified) was tested. Which activity change, negative = inhibition did it give?
**A.** inactive: 5.36%

**Q.** For `O=[N+]([O-])c1ccc(-c2cc([N+](=O)[O-])c(O)c([N+](=O)[O-])c2)cc1`, which activity change, negative = inhibition is on record?
**A.** inactive: -12.6%

**Q.** Which activity change, negative = inhibition does the source give for `COc1cc(C(=O)NCC2(N3CCOCC3)CCCCC2)ccc1OCC(C)C` here?
**A.** inactive: -6.8%

**Q.** `C[As](=O)(O)c1cccc(C(=O)O)c1` was tested. Which activity change, negative = inhibition did it give?
**A.** inactive: -9.98%

**Q.** How did the activity change, negative = inhibition turn out when `O=[As](O)(c1ccc(O)cc1)c1ccccc1O` was run?
**A.** inactive: -9.97%

**Q.** `Cc1ccc2nc3c(c(C)c2c1)CC(C(Cl)Cl)S3` (stereo unspecified) was tested. Which activity change, negative = inhibition did it give?
**A.** inactive: -12%

**Q.** How did the activity change, negative = inhibition turn out when `Cc1ccc(OP(=O)(Nc2ccc([N+](=O)[O-])cn2)Oc2ccc(C)cc2)cc1` was run?
**A.** inactive: -0.963%

**Q.** How did the activity change, negative = inhibition turn out when `COc1ccc(N/C(=N/P(=O)(N2CCOCC2)N2CCOCC2)N2CCOCC2)cc1` was run?
**A.** inactive: -14.2%

**Q.** Which activity change, negative = inhibition does the source give for `O=[N+]([O-])c1cc(Oc2ccc([N+](=O)[O-])cc2C(F)(F)F)cc([N+](=O)[O-])c1` here?
**A.** inactive: -6.83%

**Q.** With `Cc1cc(=O)[nH]c(N[N+](=O)[O-])n1` as the compound, how does the activity change, negative = inhibition read?
**A.** inactive: -6.15%

**Q.** How did the activity change, negative = inhibition turn out when `O=C(OC1CN2CCC1CC2)C12CC3CC(CC(C3)C1)C2` (stereo unspecified) was run?
**A.** inactive: -2.57%

**Q.** How did the activity change, negative = inhibition turn out when `Cc1c2c(nc3ccccc13)SC(C(Cl)Cl)C2` (stereo unspecified) was run?
**A.** inactive: -19.1%

**Q.** Which activity change, negative = inhibition does the source give for `COc1cc(I)ccc1[As](=O)(O)O` here?
**A.** inactive: -7.94%

**Q.** How did the activity change, negative = inhibition turn out when `COc1ccc2nc(NP(=O)(c3ccccc3)c3ccccc3)sc2c1` was run?
**A.** inactive: -24.7%

**Q.** For `O=P1(N(CCCl)CCCl)OCCCN1CCCl` (stereo unspecified), which activity change, negative = inhibition is on record?
**A.** inactive: -5.3%

**Q.** How did the activity change, negative = inhibition turn out when `Nc1cc(N)c2nonc2c1[N+](=O)[O-]` was run?
**A.** inactive: -15.7%

**Q.** `O=C(NC(Sc1ccncn1)C(Cl)(Cl)Cl)c1ccccc1` (stereo unspecified) was tested. Which activity change, negative = inhibition did it give?
**A.** inactive: -6.94%

**Q.** With `Oc1ccccc1CNc1ccccn1` as the compound, how does the activity change, negative = inhibition read?
**A.** inactive: -20.4%

**Q.** `NC(=O)c1cc([N+](=O)[O-])cc([N+](=O)[O-])c1N` was tested. Which activity change, negative = inhibition did it give?
**A.** inactive: -22.3%

**Q.** How did the activity change, negative = inhibition turn out when `Cc1ccc(N/C(=N/P(=O)(N2CCOCC2)N2CCOCC2)N2CCOCC2)cc1` was run?
**A.** inactive: -25.3%

**Q.** For `Cc1ccc(OP(=O)(Nc2nccs2)Oc2ccc(C)cc2)cc1`, which activity change, negative = inhibition is on record?
**A.** inactive: -14.2%

**Q.** With `COc1ccccc1OP(=O)(Nc1ccc(C)cn1)Oc1ccccc1OC` as the compound, how does the activity change, negative = inhibition read?
**A.** inactive: -1.24%

**Q.** Which activity change, negative = inhibition does the source give for `CN1CCCC(OC(=O)C(c2ccccc2)c2ccccc2)C1` (stereo unspecified) here?
**A.** inactive: -15.8%

**Q.** With `Clc1ccc(Cl)c(NC2=NCC(CBr)S2)c1` (stereo unspecified) as the compound, how does the activity change, negative = inhibition read?
**A.** inactive: -15.4%

**Q.** How did the activity change, negative = inhibition turn out when `CCN(N=Nc1nonc1N)c1nonc1N` was run?
**A.** inactive: -3.48%

**Q.** `CCCC1OP(N)(=O)OCC1CC` (stereo unspecified) was tested. Which activity change, negative = inhibition did it give?
**A.** inactive: -13%

**Q.** Which activity change, negative = inhibition does the source give for `CC(=O)Nc1ccc([As](=O)(O)O)cc1` here?
**A.** inactive: -14.6%

**Q.** For `O=C(O)c1ccccc1[As](=O)(O)O`, which activity change, negative = inhibition is on record?
**A.** inactive: -12.4%

**Q.** `O=P(Nc1nc2ccc(Cl)cc2s1)(c1ccccc1)c1ccccc1` was tested. Which activity change, negative = inhibition did it give?
**A.** inactive: -21.2%

**Q.** `CN(C)P(=O)(N(C)C)n1c(Nc2ccccc2)nnc1-c1ccccc1` was tested. Which activity change, negative = inhibition did it give?
**A.** inactive: -23.1%

**Q.** For `CN(C(=O)Cc1ccc(Cl)c(Cl)c1)[C@H]1CCCC[C@@H]1N1CCCC1`, which activity change, negative = inhibition is on record?
**A.** inactive: -13.1%

**Q.** Which activity change, negative = inhibition does the source give for `Cc1ccc(NP(=O)(Oc2ccccc2F)Oc2ccccc2F)nc1` here?
**A.** inactive: -3.39%
